pKd: −log10 of the molar value.

Drawing on patent US20090117091A1, this text covers Kuptake (saturation curve for uptake into L6 Myoblasts), Relative Affinity and Kd for three substances.

Assay [1] deals with CI-MPR on rat L6 myoblasts (rat). As to the kind of experiment: cell-based or functional assay.
Assay [2] has as its target biotinylated, His-tagged recombinant wild-type CI-MPR domains 10-13 (1288FS) (Homo sapiens (Human)) (UniProt P11717). Description: SPR (Biacore 3000); affinity relative to IGF-II.
For assay [3] the target is unchanged. Description: SPR (Biacore 3000); biotinylated CI-MPR Dom10-13 on SA chip, analyte in solution, steady-state affinity fit, I1572T mutant surface as reference.

Substance “GILT-tagged GAA ZC-701 (from UniProt P10253 70-952) (enzyme)” displayed a Kuptake (saturation curve for uptake into L6 Myoblasts) in assay [1] of 7 nM. In assay [2], the Relative Affinity was found to be 0.8.
For “GILT-tagged GAA ZC-1026 (from UniProt P01344 32-91; P10253 70-952) (enzyme)”, in assay [2], the Relative Affinity stood at 0.6. The pKd in assay [3] was 7.37.
For the substance “wild-type, untagged GAA (ZC-635) (from UniProt P10253 28-952) (enzyme)”, in assay [1], the Kuptake (saturation curve for uptake into L6 Myoblasts) was 354 nM.
